{"sequences": {"note": "Sequences of proteins named here, by UniProt entry; tags and fusion partners are left off. Residues count along the entry.", "UniProt P23219, 24-599": "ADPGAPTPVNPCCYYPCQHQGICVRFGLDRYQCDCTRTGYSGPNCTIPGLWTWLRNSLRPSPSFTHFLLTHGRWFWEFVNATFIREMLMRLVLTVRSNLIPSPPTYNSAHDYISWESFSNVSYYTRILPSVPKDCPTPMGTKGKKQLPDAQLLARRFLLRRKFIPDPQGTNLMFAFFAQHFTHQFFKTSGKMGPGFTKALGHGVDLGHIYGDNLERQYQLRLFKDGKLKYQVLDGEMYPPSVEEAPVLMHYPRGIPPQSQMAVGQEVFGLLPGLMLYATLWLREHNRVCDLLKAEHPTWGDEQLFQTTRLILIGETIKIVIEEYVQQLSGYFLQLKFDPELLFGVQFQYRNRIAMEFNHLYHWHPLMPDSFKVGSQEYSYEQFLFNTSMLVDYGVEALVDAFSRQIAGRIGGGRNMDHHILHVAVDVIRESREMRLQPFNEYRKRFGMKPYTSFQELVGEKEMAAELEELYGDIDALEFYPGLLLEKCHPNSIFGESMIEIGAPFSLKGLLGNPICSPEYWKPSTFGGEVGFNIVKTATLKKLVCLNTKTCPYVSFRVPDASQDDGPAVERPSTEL"}, "source": "patent US20090012115A1", "about": "“USE OF TP MODULATORS FOR THE TREATMENT OF CARDIOVASCULAR DISORDERS IN ASPIRIN SENSITIVE AND OTHER POPULATIONS” (Portola Pharmaceuticals, Inc., priority 2007, published 2009)", "origin": "cited, not measured here", "key": {"[1]": {"conditions": "human circulation; cited from earlier work"}, "[2]": {"target": "COX-1 (Homo sapiens, UniProt P23219)", "conditions": "cited from earlier work"}}}
{"substance": "ortho-acetylsalicylic acid [aspirin]", "values": [{"measurement": "half-life", "setting": "[1]", "value": "~20", "unit": "min"}, {"measurement": "selectivity toward COX-1 than COX-2", "setting": "[2]", "value": "approximately 100 fold"}]}
